The results in this text go back to patent US20250222143A1, “TARGETED RADIOTHERANOSTICS BASED ON POLYAZAMACROCYCLIC, MIXED-DONOR SCAFFOLDS LINKED TO A TARGETING VECTOR” (The Research Foundation for the State University of New York, priority 2021, published 2025).

This data set concerns PSMA+ (PC-3 PiP) and PSMA-(PC-3 Flu) tumor xenografts. Particulars: i.v., n = 4.

Turning to `O=C([O-])CN1CCN(CC(=O)[O-])CCN(CC(=O)NCC2CCC(C(=O)N[C@@H](Cc3ccc4ccccc4c3)C(=O)NCCCC[C@H](NC(=O)N[C@@H](CCC(=O)O)C(=O)O)C(=O)O)CC2)CCN(CC(=O)[O-])CC1.[177Lu+3]` (stereo partly drawn) [^177Lu-PSMA-617, reference compound], the “Tumor− 72 h p.i.” value (PSMA- PC-3 flu tumor, 72 h p.i.) is recorded as 0.02 ± 0.01 % ID/g. Also, the “Blood 72 h p.i.” value (tumor-bearing mice, Blood, 72 h p.i.) came out at 0.03 ± 0.01 % ID/g. The “Bone 24 h p.i.” value (tumor-bearing mice, Bone, 24 h p.i.) was found to be 0.07 ± 0.01 % ID/g. Besides, for the setting “tumor-bearing mice, Bone, 72 h p.i.”, the “Bone 72 h p.i.” value is 0.05 ± 0.01 % ID/g. For the same compound, the “Heart 24 h p.i.” value (tumor-bearing mice, Heart, 24 h p.i.) stood at 0.09 ± 0.04 % ID/g. Under “tumor-bearing mice, Heart, 72 h p.i.”, the “Heart 72 h p.i.” value came to 0.03 ± 0.01 % ID/g. Further, the “Kidney 72 h p.i.” value (tumor-bearing mice, Kidney, 72 h p.i.) is 0.08 ± 0.04 % ID/g. For the same compound, the “Liver 24 h p.i.” value (tumor-bearing mice, Liver, 24 h p.i.) was 0.08 ± 0.04 % ID/g. Moreover, the “Liver 72 h p.i.” value (tumor-bearing mice, Liver, 72 h p.i.) was determined as 0.03 ± 0.00 % ID/g. Moreover, under “tumor-bearing mice, Muscle, 24 h p.i.”, the “Muscle 24 h p.i.” value was 0.04 ± 0.01 % ID/g. Also, for the setting “tumor-bearing mice, Muscle, 72 h p.i.”, the “Muscle 72 h p.i.” value was 0.02 ± 0.01 % ID/g. In addition, the “Sm Int 24 h p.i.” value (tumor-bearing mice, Sm Int, 24 h p.i.) is 0.06 ± 0.02 % ID/g. Moreover, under “tumor-bearing mice, Sm Int, 72 h p.i.”, the “Sm Int 72 h p.i.” value came to 0.03 ± 0.01 % ID/g. Further, the “Spleen 24 h p.i.” value (tumor-bearing mice, Spleen, 24 h p.i.) is 0.08 ± 0.03 % ID/g. Moreover, for the setting “tumor-bearing mice, Spleen, 72 h p.i.”, the “Spleen 72 h p.i.” value is reported as 0.04 ± 0.01 % ID/g.
